Ab-14 heavy chain CDR variants: yeast mating affinities

All variants were tested on one target, the spike HR2 peptide PDVDLGDISGINAS (SARS-CoV-2).

Each scFv is VH, three GGGGS repeats, VL, as in the parent Ab-14, and differs from it in the CDRs of the heavy chain only.
VH: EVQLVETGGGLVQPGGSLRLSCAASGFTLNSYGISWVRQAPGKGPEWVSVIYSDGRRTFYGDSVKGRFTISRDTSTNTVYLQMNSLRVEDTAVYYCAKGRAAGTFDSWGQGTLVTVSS
VL: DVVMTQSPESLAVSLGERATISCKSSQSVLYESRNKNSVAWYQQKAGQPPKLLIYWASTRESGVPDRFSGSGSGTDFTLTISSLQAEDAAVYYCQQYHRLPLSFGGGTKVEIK

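Phage display of a naive human antibody library on the peptide gave the parent. The variants were designed computationally from a first round of random CDR variants and then made and measured. Several design methods are mixed in this list. AlphaSeq pools MATa yeast showing the antibodies with MATalpha yeast showing the peptide. The frequency of each diploid, read from paired DNA barcodes, reflects how well the two displayed proteins bind. Read counts were normalised to the haploid input and turned into Kd by a linear fit to BCL2-family pairs of known affinity, for each replicate. Each pool was mated in six replicate cultures.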

Each variant is given by its three heavy chain CDRs, as the data file delimits them; those of the parent are GFTLNSYGIS, VIYSDGRRTFYGDSVK, GRAAGTFDS.
Scale: log10 of Kd in nM, estimated from mating counts; low values are strong binders.
A mean of the replicates is given; it leaves out those without a signal.
"not detected" means that the variant was in the library but no mating with the target was seen in any replicate; the authors take this as a sign of poor binding, and no number exists.
A sequence measured in both rounds can read differently, since the two assays cover different ranges.
Empty control strains, which show no peptide, gave a signal in 1% of pairings with all heavy chain designs; the median was 2.08 and 95% of these signals were weaker than 0.84. No background was subtracted.
The authors averaged sequences with at least three values out of six and counted those with two or fewer as poor binders.

| CDR-H1 | CDR-H2 | CDR-H3 | log10 Kd (nM), mean | seen in |
|---|---|---|---|---|
| GEDLDEYGIS | VIYADGRRVVYQDQVK | GELAGTFYQ | not detected | 0/6 |
| GFSLNEYGIS | VIYSDGRRTFYGDSVK | GQAAGTFDL | not detected | 0/6 |
| GFTRNECGIS | VIYADGRRTFYGDSVK | GRAAGTFDM | 0.42 | 6/6 |
| GFTLNSYGIS | VIYADGRRTFYGDSVK | GQAAGTFDN | 0.53 | 6/6 |
| GFTLNDYGIS | VIYSDGRRTMYDDSVK | GRAAGTFDS | 1.07 | 6/6 |
| GFDLNSYGIS | VIYSDGRRTFYGDSVK | GRLAGTFES | 0.51 | 6/6 |
| GFELNSYGIS | VIYSDGRRTFYADSVK | GRHAGTFDS | 1.04 | 6/6 |
| GFTLNEYRIS | VIWSDGRRTFYTDSVK | GRFAGMFDS | not detected | 0/6 |
| GFDLNSYGIS | VIYSDGRRTFYGDSVK | GRAAGRFNS | not detected | 0/6 |
| GFTLNEYGIS | VIYSDGRRTGYQDSVK | GKARGTFDS | not detected | 0/6 |
| GFPLNEYGIS | VIYSDGRRTFYGDSVK | GQAAGTFDS | 0.80 | 6/6 |
| GFNLNSYGIT | VIYSDGRRTFYGDSVK | GRAEGTFDS | 3.95 | 1/6 |
| GFTLDEYGIS | VIYADGRRTFYADSVK | GEQAGTFDI | -0.46 | 6/6 |
| GNELDEYGIS | VIYADGKRTAYSDAVK | DVGSNTLVD | not detected | 0/6 |
| GFTLNSYGIS | VIYSDGRRTFYGDSVK | GKEAGTFDS | 0.41 | 6/6 |
| GFDLNEYGIS | VIYADGQRTAYADSVK | GNQAGTFDV | -0.61 | 6/6 |
| GFSLNDYGIS | VIYSDGRRTFYGDSVK | GRIAGTFES | -0.04 | 6/6 |
| GFTLNEYGIS | VIYSDGERTFYGDSVK | GRAAGHFDS | 2.82 | 1/6 |
| GFDLQEYGIS | VIYADGARKSYTNSVK | GVWGTTMDV | 2.93 | 1/6 |
| GHDINEYGIS | VIYADGKRSYYAQDVK | GQNIGQGTT | not detected | 0/6 |
| GFPVNSYSIS | VIYSDGRRTFYADSVK | GRAAGDFDS | not detected | 0/6 |
| GFHLNSYGIS | VIYSDGRRTFYGDSVR | GRAAGTFDS | 2.53 | 5/6 |
| GFALNSYGIS | VIYSDGRRTFYGDSVK | GRAAGTFHS | not detected | 0/6 |
| GFQLNEYGIS | VIYSDGMRTFYGDSVK | GRTAGTFDS | 0.24 | 6/6 |
| GFDLDEYGIS | VIYADGMRTFYSDSVK | GEAAGTFDA | -0.52 | 6/6 |
| GFTLNEYGIS | VIYRDGRRTFYTDSVK | GRFAGTFDS | not detected | 0/6 |
| GFNLNSYGIS | VIYSDGMRTFYGDSVK | GRQAGTFDS | 1.55 | 6/6 |
| GFDLDEYGIS | VIYADGQRTAYADSVK | GENAGTFDL | 0.02 | 6/6 |
| GFLLNSYGIS | VIYSDGRRTFYADSVK | GRTAGTFDS | 0.24 | 6/6 |
| GFTLNSYGIS | VIYSDGRRTFYNDSVK | GRAAGTFFS | not detected | 0/6 |
| GFDINEYGIS | VIYADGQRVAYTNSFK | GTQAGQFIN | 2.12 | 1/6 |
| GFELNSYGIS | VIYSDGRRTFYTDSVK | GKNAGTFDS | 0.80 | 3/6 |
| GFTLNSYGIS | VIYSDGRRTFYGDSVK | GRAKGAKDS | not detected | 0/6 |
| GFDLNSYGIS | VIYSDGRRTFYIDSVK | GRAAGHFDS | 2.48 | 1/6 |
| GFGLNEYGIS | VIYSDGRRTFYGDSVK | GQAAGTFDV | 0.16 | 6/6 |
| GFDLNEYGIS | VIYADGMRTAYTDSVK | GNQAGTFDL | -0.67 | 6/6 |
| GFDINEYGIS | VMYADGSRVAYRDDVK | GFWGGTFDM | -0.32 | 2/6 |
| GFELNSYGIS | VIYSDGRRTFYVDDVK | GRTAGTFDS | 0.33 | 6/6 |
| GFELNEYGIS | VIYSDGIRTFYGDSVK | GRTAGTFDS | -0.22 | 6/6 |
| GFDLNEYGIS | VIYADGRRTAYTDSVK | GANAGTFDQ | 0.47 | 6/6 |
| GFDLNEYGIS | VIYADGTRTAYADDVK | GENAGTFDV | -0.28 | 6/6 |
| GFDLNEYGIS | VIYADGMRKYYADSVK | GENAGTFDI | 0.05 | 6/6 |
| GFDLNEYGIS | VIYADGMRTVYADSVK | GTNAGTFDM | -0.39 | 6/6 |
| GFDLDEYGIS | VIYADGRRTAYIDSVK | GNNAGTFDV | -0.31 | 6/6 |
| GFTLNSYGIS | VIYSDGYRVFYGDEVK | GRAAGNFDS | not detected | 0/6 |
| GFTLNSYGIS | VIYADGHRTAYGDSVK | GEAAGTIWS | not detected | 0/6 |
| GFSLNSYGIS | VIYSDGRRTFYGDSVK | GREAGTFDR | 0.56 | 6/6 |
| GHTLNDYGIS | VIYSDGRRTFYGDSVK | GRAAGTFDS | not detected | 0/6 |
| GFDLNEYGIS | VIYADGMRTAYADSVK | GEAAGTFDQ | -0.85 | 6/6 |
| GFTLMSYGIS | VIYSDGRRTFYGDSVK | GQLAGTFDS | 0.71 | 3/6 |
| GFSLNDYGIS | VIYSDGRRTFYGDSVK | GRWAGTFIS | 0.99 | 6/6 |
| GITLNDYGIS | VIYSDGRRTFYGDNVK | GRAAGIFDS | not detected | 0/6 |
| GFDLNEYGIS | VIYADGRRTFYADSVK | GNVAGTFFI | 0.29 | 6/6 |
| GFDLNEYGIS | VIYADGMRTAYADSVK | GTNAGTFDT | -0.31 | 6/6 |
| GFDLNEYGIS | VIYADGQRTAYVDSVK | GENAGTFDV | -0.37 | 6/6 |
| GFWLNSYGIS | VIYSDGRRTFYHDKVK | GAAAGTFDS | not detected | 0/6 |
| GFDLNEYGIS | VIYADGRRTFYADDVK | GEVAGTFIV | -0.19 | 6/6 |

From the AlphaSeq antibody data of Li et al. 2023 (doi:10.1038/s41467-023-39022-2), copy in the FLAb collection.